What was measured:
BT474 cells = test: In vitro cellular inhibitory activity on BT474 mammary cancer cells (XTT); format: cell-based; settings: Homo sapiens, BT-474, 72 hours
NCI-N87 cell = test: In vitro cellular inhibitory activity on NCI-N87 gastric carcinoma cells (XTT); format: cell-based; settings: Homo sapiens, 72 hours
[1] = test system: SKOV-3 human-derived xenografts model in ovarian cancer; test: In vivo pharmacodynamic evaluation, SKOV-3 human-derived xenografts model in ovarian cancer; design: species or system BALB/c nude mice; settings: 50 mg/kg oral once a day; 14 days after the administration

Work on C#Cc1cccc(Nc2ncnc3cc(OCCOC)c(OCCOC)cc23)c1 [Erlotinib, reference compound] yielded an IC50 (BT474 cells) of 5.43 µM, an IC50 (NCI-N87 cell) of 2.11 µM and a T/C [1] of 83.0%. For the same compound, the TGI [1] was 17.0% and the “Tumor Volume” value [1] was 1349 ± 142 mm^3.

Reference: patent US10507209B2, “Quinazoline derivatives substituted by aniline, preparation method and use thereof” (XUANZHU PHARMA CO., LTD., priority 2010, dated 2019)
